Results published in PubChem BioAssay AID720543 (The Scripps Research Institute Molecular Screening Center, 2013).
This is a selection; strong and weak results do not stand in their true shares. Some structures show a salt or complex split into parts, the way the source records it. Activity calls are given as the source filed them.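 How the source made its calls: active means inhibition exceeding the mean over every tested compound plus 3 SD (cut at about 30% in these data); inactive means the rest.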

Protein sequences, listed by entry. Tags and fused reporters are not part of them.
UniProt Q8VD66, whole entry: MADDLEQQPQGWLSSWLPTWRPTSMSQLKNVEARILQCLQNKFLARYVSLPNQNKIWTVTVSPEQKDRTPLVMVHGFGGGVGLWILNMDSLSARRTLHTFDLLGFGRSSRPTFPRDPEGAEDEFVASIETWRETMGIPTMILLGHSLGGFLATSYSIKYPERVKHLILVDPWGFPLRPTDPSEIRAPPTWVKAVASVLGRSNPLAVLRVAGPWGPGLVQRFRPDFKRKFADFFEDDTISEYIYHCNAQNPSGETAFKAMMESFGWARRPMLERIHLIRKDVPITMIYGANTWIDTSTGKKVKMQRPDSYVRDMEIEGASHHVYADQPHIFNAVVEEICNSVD

The compounds below were run against (Lyso)-N-acylphosphatidylethanolamine lipase (Mus musculus) (UniProt Q8VD66) (assay: mouse ABHD4 hydrolase activity blockers – biochemical, fluorescence polarization, primary screen (AID 720543;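 further: 0% = plate median of compound wells and 100% = S159A mutant with DMSO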)). Details: purified mABHD4, FP-Rh probe fluorescence polarization; at 8.92 µM; stronger effect = higher value.
In short: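 Test system: mABHD4 protein; Read-out basis: % inhibition; Incubation: 45 min + 60 min at 25 °C; Repeats: single replicate; Technique: fluorescence polarization with parallel and perpendicular emission, 525/598 nm; Compound: 8.92 µM, single dose; Benchmarks: full inhibition S159A mutant plus DMSO, zero as sample-well median.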

SMILES | inhibition
COc1ccc2c(c1O)-c1c(O)c(OC)cc3c1[C@H](C2)[N+](C)(C)CC3.O=[N+]([O-])c1cc([N+](=O)[O-])c([O-])c([N+](=O)[O-])c1[O-] | inactive: 7.73%
O=C(OCCN1CCN(CCOCc2ccccc2)CC1)C(O)(c1ccccc1)c1ccccc1 | inactive: 1.51%
O=C(OC1CN2CCC1CC2)c1ccc([N+](=O)[O-])cc1 (stereo unspecified) | inactive: -4.78%
CC(C)c1ccc(OP(C)(=O)Nc2ccc(SC(F)(F)F)cc2)cc1 (stereo unspecified) | inactive: -4.23%
CP(=O)(Nc1ccccc1F)Oc1ccccc1 (stereo unspecified) | inactive: -1.32%
O=[N+]([O-])c1cc([N+](=O)[O-])c(Nc2ccc(Cl)cc2)c([N+](=O)[O-])c1 | inactive: 5.84%
O=[N+]([O-])c1cc([N+](=O)[O-])c(OC2CCCCC2O)c([N+](=O)[O-])c1 (stereo unspecified) | inactive: -0.38%
CCCCCOc1ccc(NP(C)(=O)Oc2ccc(Cl)cc2Cl)cc1 (stereo unspecified) | inactive: -3.31%
CP(=O)(Nc1ccccc1)Oc1ccc(F)cc1 (stereo unspecified) | inactive: 3.95%
CCN(CC)CCCOC(=O)C(O)(c1ccccc1)C1CCCCC1 (stereo unspecified) | inactive: 9.82%
Cc1c([N+](=O)[O-])cc([N+](=O)[O-])c(Br)c1[N+](=O)[O-] | inactive: -20.3%
COc1ccc(OP(C)(=O)Nc2ccc(SC(F)(F)F)cc2)cc1 (stereo unspecified) | inactive: -8.76%
CCOC(=O)c1ccc(NP(C)(=O)Oc2ccc(F)cc2)cc1 (stereo unspecified) | inactive: 4.91%
CCN(CC)CCCNc1ccccc1[N+](=O)[O-].O=[N+]([O-])c1cc([N+](=O)[O-])c(O)c([N+](=O)[O-])c1 | inactive: -7.5%
Cc1c(C(c2ccc3c(c2)OCO3)c2c(C)n(C)n(-c3ccccc3)c2=O)c(=O)n(-c2ccccc2)n1C.O=[N+]([O-])c1cc([N+](=O)[O-])c(O)c([N+](=O)[O-])c1 | inactive: 3.54%
O=[N+]([O-])c1cc([N+](=O)[O-])c(NCC2CCS(=O)(=O)C2)c([N+](=O)[O-])c1 (stereo unspecified) | inactive: 8.5%
Cc1cc(-c2cccc3ccccc23)c(C)cn1.O=[N+]([O-])c1cc([N+](=O)[O-])c(O)c([N+](=O)[O-])c1 | inactive: -6.31%
O=[N+]([O-])c1ccc(OP2(=O)COCCO2)cc1 (stereo unspecified) | inactive: 0.86%
COc1ccc(NP(C)(=O)Oc2ccccc2OC)cc1 (stereo unspecified) | inactive: -0.05%
CN(C)CCOC(=O)C(O)(c1ccccc1)C1CCCCC1 (stereo unspecified) | inactive: -2.15%
COc1ccc(OP(C)(=O)Nc2cccc(Br)c2)cc1 (stereo unspecified) | inactive: -6.01%
O=[N+]([O-])c1cc([N+](=O)[O-])c(C(F)(F)F)c([N+](=O)[O-])c1O | inactive: -65.4%
Cc1ccccc1NP(C)(=O)Nc1ccccc1C | inactive: 3.23%
CP(=O)(Nc1ccc2c(c1)OCCO2)Oc1ccccc1 (stereo unspecified) | inactive: 3.18%

SMILES | inhibition
CCOP(=O)(CC)OCC | inactive: -0.97%
CCOP(C)(=S)SCC(=O)NC(C)(CC)C(=O)O (stereo unspecified) | inactive: 9.08%
CP(=O)(Nc1ccc(SC(F)(F)F)cc1)Oc1ccc(F)cc1 (stereo unspecified) | inactive: -5.02%
Cc1nc2ccc3ccccc3c2s1.O=[N+]([O-])c1cc([N+](=O)[O-])c(O)c([N+](=O)[O-])c1 | inactive: -12.5%
O=[N+]([O-])c1cc([N+](=O)[O-])c(-c2cnn(-c3ccccc3)c2)c([N+](=O)[O-])c1 | inactive: -2.26%
CN(Cc1cccnc1)C(=O)COc1ccc(Cl)c(Cl)c1.O=[N+]([O-])c1cc([N+](=O)[O-])c(O)c([N+](=O)[O-])c1 | inactive: -6.84%
O=[N+]([O-])c1cc([N+](=O)[O-])c(-n2nnc3ccccc32)c([N+](=O)[O-])c1 | inactive: 0.55%
CP(=O)(Nc1ccc(SC(F)(F)F)cc1)Oc1ccccc1 (stereo unspecified) | inactive: -1.3%
CCCOc1ccc(NP(C)(=O)Oc2ccc(Cl)cc2)cc1 (stereo unspecified) | inactive: -2.61%
COc1ccc(-c2ccccn2)cc1.O=[N+]([O-])c1cc([N+](=O)[O-])c(O)c([N+](=O)[O-])c1 | inactive: -1.13%
CN1CCCCC1COC(=O)C1(O)c2ccccc2CCc2ccccc21 (stereo unspecified) | inactive: -1.53%
COc1ccccc1OP(C)(=O)Nc1c(C)cccc1C (stereo unspecified) | inactive: -8.6%
CCOC(=O)C(CC)C1=NC(C)(C)Cc2ccccc21.O=[N+]([O-])c1cc([N+](=O)[O-])c(O)c([N+](=O)[O-])c1 (stereo unspecified) | inactive: -1.68%
O=[N+]([O-])c1cc([N+](=O)[O-])c(Nc2nnnn2CCO)c([N+](=O)[O-])c1 | inactive: 9.14%
CC1=NCCc2c1[nH]c1ccccc21.O=[N+]([O-])c1cc([N+](=O)[O-])c(O)c([N+](=O)[O-])c1 | inactive: 2.64%
O=C(O)c1cccc(Nc2c([N+](=O)[O-])cc([N+](=O)[O-])cc2[N+](=O)[O-])c1 | inactive: 1.82%
CP(=O)(Nc1cccc(Br)c1)Oc1ccccc1 (stereo unspecified) | inactive: -2.27%
Cc1cc(C)cc(OP(C)(=O)Nc2ccccn2)c1 (stereo unspecified) | inactive: -7.81%
Cc1ccc(C)c(NP(C)(=O)Oc2ccccc2)c1 (stereo unspecified) | inactive: 0.32%
Cc1cc(C)cc(OP(C)(=O)Nc2ccc(C)cc2C)c1 (stereo unspecified) | inactive: -1.02%
CCOC(=O)c1ccc(NP(C)(=O)Oc2cc(C)cc(C)c2)cc1 (stereo unspecified) | inactive: -4.08%
COc1ccccc1OP(C)(=O)Nc1cccc(Br)c1 (stereo unspecified) | inactive: 2.49%
COc1ccccc1-c1ccccn1.O=[N+]([O-])c1cc([N+](=O)[O-])c(O)c([N+](=O)[O-])c1 | inactive: -2.7%
CCN(CC)CCCOC(=O)C(O)(c1ccccc1)c1ccccc1 | inactive: -5.47%

SMILES | inhibition
COc1ccc(OP(C)(=O)Nc2cccc(F)c2)cc1 (stereo unspecified) | inactive: -2.8%
COc1ccccc1OP(C)(=O)Nc1cc(Cl)ccc1C (stereo unspecified) | inactive: 2.91%
Cc1cc(C)cc(OP(C)(N)=O)c1 (stereo unspecified) | inactive: 0.08%
CCOC(=O)c1ccc(NP(C)(=O)Oc2ccccc2)cc1 (stereo unspecified) | inactive: 1.1%
Cc1ccc(NP(C)(=O)Oc2ccccc2)c(C)c1 (stereo unspecified) | inactive: 7.29%
COc1ccccc1OP(C)(=O)Nc1ccc(C)cc1 (stereo unspecified) | inactive: -11.9%
Cc1cccc(C)c1OP(C)(N)=O (stereo unspecified) | inactive: -4.74%
CC(C)(C)c1ccc(OP(C)(=O)Nc2ccc(SC(F)(F)F)cc2)cc1 (stereo unspecified) | inactive: 0.74%
O=[N+]([O-])c1ccc2c(c1)C=Nc1ccccc1O2 | inactive: -1.38%
O=[N+]([O-])c1cc([N+](=O)[O-])c(Nc2cccnc2)c([N+](=O)[O-])c1 | inactive: 10.7%
COc1ccccc1OP(C)(=O)Nc1ccccc1 (stereo unspecified) | inactive: -2.63%
CP(=O)(Nc1ccccc1Br)Oc1ccccc1 (stereo unspecified) | inactive: 0.97%
CP(=S)(Nn1cnnc1)Oc1ccccc1 (stereo unspecified) | inactive: 6.36%
CP(=O)(Nc1ccccn1)Oc1ccc(Cl)cc1 (stereo unspecified) | inactive: 7.55%
CCOP(C)(=S)SCC(=O)NC(C)C(=O)O (stereo unspecified) | inactive: -0.42%
O=[N+]([O-])c1cc([N+](=O)[O-])c(O)c([N+](=O)[O-])c1.c1ccc(Oc2ccncc2)cc1 | inactive: -1.11%
CCOC(=O)c1ccc(NP(C)(=O)Oc2ccc(OC)cc2)cc1 (stereo unspecified) | inactive: -8.56%
Cc1cc(C)cc(OP(C)(=O)Nc2ccc(SC(F)(F)F)cc2)c1 (stereo unspecified) | inactive: 9.67%
CCc1ccc(OP(C)(=O)N2CCN(c3ccc([N+](=O)[O-])cc3)CC2)cc1 (stereo unspecified) | inactive: 1.05%
CP(=O)(NC(=O)Nc1ccccc1)Oc1ccccc1 (stereo unspecified) | inactive: 0.51%
CP(=O)(Oc1ccccc1)OC(c1ccccc1)C(F)(F)F (stereo unspecified) | inactive: 1.51%
CP(=O)(Nc1ccc(SC(F)(F)F)cc1)Oc1ccc(Cl)cc1 (stereo unspecified) | inactive: -15.6%
Cc1cccc(C)c1OP(C)(=O)Nc1ccc(SC(F)(F)F)cc1 (stereo unspecified) | inactive: 8.42%
